# Laboratory results taken from patent publication US20120309087A1, “CANCER THERAPY” (University Court of The University of Dundee, priority 2006, published 2012).
# Test system: ARE-driven luciferase activity in AREc32 cells
# Experiment: Antagonism of induced ARE-driven luciferase activity in AREc32 cells
# Assay type: cell-based, human
compound,measurement,value
"CC1=C(/C=C/C(C)=C/C=C/C(C)=C/C(=O)O)C(C)(C)CCC1 [ATRA, all trans-retinoic acid]",chemotherapeutic agent-mediated induction of luciferase activity,completely ablates
same,chemotherapeutic agent-mediated luciferase activity after BSO pretreatment,significantly antagonising
